Each structure is given as a SMILES string. Calls of active or inactive are those of the source. The rule behind the calls is not given here.

Protein sequences, listed by entry. Tags and fused reporters are not part of them. Lines headed by an entry give the natural chain unless they say otherwise; changes in a name come on top.
UniProt Q00535, whole entry, looked up: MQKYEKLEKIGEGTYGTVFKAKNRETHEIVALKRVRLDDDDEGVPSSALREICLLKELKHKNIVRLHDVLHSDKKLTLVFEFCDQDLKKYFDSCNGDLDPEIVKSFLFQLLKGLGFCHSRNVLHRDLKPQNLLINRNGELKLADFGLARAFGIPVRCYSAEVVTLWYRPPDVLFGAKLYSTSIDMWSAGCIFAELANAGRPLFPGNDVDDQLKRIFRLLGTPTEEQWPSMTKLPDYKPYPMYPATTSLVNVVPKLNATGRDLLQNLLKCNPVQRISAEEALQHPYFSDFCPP
UniProt Q15078: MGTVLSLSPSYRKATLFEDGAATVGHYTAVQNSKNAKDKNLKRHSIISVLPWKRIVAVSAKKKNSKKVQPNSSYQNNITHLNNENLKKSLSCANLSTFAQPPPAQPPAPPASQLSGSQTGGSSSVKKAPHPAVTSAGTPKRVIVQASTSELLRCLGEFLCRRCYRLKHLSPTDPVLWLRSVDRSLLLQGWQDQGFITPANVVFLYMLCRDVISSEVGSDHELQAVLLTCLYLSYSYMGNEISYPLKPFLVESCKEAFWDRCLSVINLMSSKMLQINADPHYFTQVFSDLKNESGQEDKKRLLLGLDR

Assay [1] addresses T1, Cyclin-dependent kinase 5/CDK5 activator 1 (Homo sapiens) (UniProt Q00535+Q15078). Nature of the assay: Inhibition of human CDK5/p25 assessed as gamma-32P-ATP incorporation upto 30 uM by liquid scintillation counting analysis. It counts as protein-complex assay.
The target in assay [2] is T1, Cyclin-dependent kinase 5/CDK5 activator 1 (Homo sapiens). Nature of the assay: Inhibition of human CDK5/p35 assessed as gamma-32P-ATP incorporation upto 30 uM by liquid scintillation counting analysis. It counts as protein-complex assay.

With `Cc1cc(O)c(C(=O)/C=C/c2ccncc2)c(=O)o1`, the inhibition entry in assay [1] and in assay [2] was “inactive” in each case.

For the compound `Cc1cc(O)c(C(=O)/C=C/c2ccnc(F)c2)c(=O)o1`, the inhibition result in assay [1] and in assay [2] was “inactive” in each case.

The record behind these values is ChEMBL document CHEMBL5385854, “Discovery of PPARγ and glucocorticoid receptor dual agonists to promote the adiponectin and leptin biosynthesis in human bone marrow mesenchymal stem cells” (Eur J Med Chem, 2023).
